Columns and labels:
[1] = molecular target: MCL-1/Bim interaction (recombinant human MCL-1 protein, residues 171-327; biotinylated human Bim peptide, residues 51-76) (Homo sapiens (Human), UniProt Q07820); assay: MCL-1/Bim Binding AlphaLISA Assay; settings: read-out: MCL-1/Bim IC50, 0.0625 nM 6xHis-Mcl-1 (171-327), 0.0625 nM biotinylated-Bim peptide
[2] = test system: SKBR3 cells; assay: SKBR3 Cell Viability Assay (CellTiter Glo); settings: read-out: MCL-1 CV SKBR3 EC50, 72 hours, CellTiter Glo luminescence

The chains behind the UniProt entries cited, without tags or fusion partners. Residues count along the entry.
UniProt Q07820, 171-327 limits assumed: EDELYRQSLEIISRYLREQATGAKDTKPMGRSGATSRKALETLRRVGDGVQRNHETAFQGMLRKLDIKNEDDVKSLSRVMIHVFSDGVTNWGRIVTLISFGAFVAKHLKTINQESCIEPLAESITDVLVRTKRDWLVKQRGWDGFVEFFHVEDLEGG

Structure (SMILES) | IC50 [1] | EC50 [2]
COCCC(=O)N[S@@]1(=O)=NC(=O)c2ccc3c(c2)N(C[C@@H]2CC[C@H]2[C@@H](OC)/C=C/CCC1)C[C@@]1(CCCc2cc(Cl)ccc21)CO3 | 0.3 nM | 894 nM
COc1c(C(=O)N[S@@]2(=O)=NC(=O)c3ccc4c(c3)N(C[C@@H]3CC[C@H]3[C@@H](OC)/C=C/C[C@H](C)C2)C[C@@]2(CCCc3cc(Cl)ccc32)CO4)cn(C)[n+]1[O-] | 0.045 nM | –
CCC(=O)N[S@]1(=O)=NC(=O)c2ccc3c(c2)N(C[C@@H]2CC[C@H]2[C@@H](OC)/C=C/C[C@H](C)[C@H]1C)C[C@@]1(CCCc2cc(Cl)ccc21)CO3 | 0.9 nM | 1700 nM
